Measured values from patent US20230218631A1 (priority 2020, published 2023).

Tested on: C57BL/6J male mice

## trans-(1R,2R)-3,4-Dichloro-N-methyl-N-[2-(1-pyrrolidinyl)cyclohexyl]-benzeneacetamide
1.25 mg/kg i.p.
  effect on ethanol drinking, low dose U50,488: only modest effects
5 mg/kg i.p., Air-treated AAV-shSC, FIG. 3C
  ethanol drinking, second exposure to high dose U50,488, Air-treated virus control group: robust increase
5 mg/kg i.p., second cohort, FIG. 4C
  ethanol drinking after U50,488 in virus control group (AAV-shSC): increased ethanol drinking
CIE-treated (dependent) mice, FIG. 3D
  drinking levels after U50,488 in CIE-treated groups: failed to increase drinking levels

Some compounds may have been tested in ways that are not shown here.
